Laboratory results reported in publication PMC12155840 (Molecules, 2025).

Sequences of proteins named here, by UniProt entry; tags and fusion partners are left off.
UniProt P30542, whole entry: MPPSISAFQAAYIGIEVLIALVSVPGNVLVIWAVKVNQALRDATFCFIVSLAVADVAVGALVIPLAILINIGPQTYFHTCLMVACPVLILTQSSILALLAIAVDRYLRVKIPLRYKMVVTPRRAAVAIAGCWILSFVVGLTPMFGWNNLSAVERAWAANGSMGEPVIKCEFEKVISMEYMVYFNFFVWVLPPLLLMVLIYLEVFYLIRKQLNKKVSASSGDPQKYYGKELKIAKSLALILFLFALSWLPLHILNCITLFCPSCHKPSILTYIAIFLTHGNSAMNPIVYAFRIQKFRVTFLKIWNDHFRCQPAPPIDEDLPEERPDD

Target: human A1 adenosine receptor (hA1R) (Homo sapiens, UniProt P30542)
Assay: cAMP inhibition assay, direct agonist mode, in CHO-K1-hA1R cells (Cisbio cAMP Gi kit, forskolin co-stimulation)
Settings: DPCPX 1 μM, with Ze 911 extract, 1 μM forskolin

CCCn1c(=O)c2[nH]c(C3CCCC3)nc2n(CCC)c1=O [DPCPX, reference compound]
Effect of antagonist on Ze 911-induced inhibition of cAMP formation: effectively blocked
